In patent US11147875B2, “Compositions, combinations and related methods for photoimmunotherapy” (priority 2015, dated 2021):
Read-outs that look alike come from different tables or passages of the source.

Key:
[1] = tested on: BxPC3 cells; experiment: PIT with cetuximab conjugates with or without donkey anti-human-IRDye 700DX; type: cell-based; conditions: 250 ng/mL 1st incubation
Protocol: The cells were then washed one time with complete culture media, incubated for 30 minutes at 4° C. with or without 2 μg/mL Donkey anti-Human IRDye 700DX conjugated (DxHu IR700) secondary antibody diluted with complete culture media, and then washed one time with complete culture media. The cells were then illuminated with a 690 nm laser at a light dose of 16 J/cm^2 or protected from light (“no light”).
The effect of different treatment regimens on cell death was measured using the fluorescent stain, CellTox Green (Cat No: G8731, Promega, Madison, Wis.). […] After the light treatment, all cells were incubated with 1× CellTox Green reagent diluted in complete culture media. […] The CellTox Green fluorescence signal was measured at 24 hours after light treatment using a fluorescence plate reader. The cells were then lysed with detergent, incubated at 37° C. for 30 minutes, and the CellTox Green fluorescence signal was measured again post lysis. The percent dead cells was calculated by taking the ratio between background (lx CellTox Green in complete culture media without cells) subtracted CellTox Green signal per well prior to and post lysis and multiplying the ratio by 100.

[2] = tested on: THP1 cells; experiment: CD86 on THP1 cells co-cultured with PIT-treated tumor cells, flow cytometry; type: cell-based, human; conditions: 500 ng/mL, 12 J/cm^2
Protocol: A431 cell line was grown in complete RPMI and T98G, FaDu and U87 tumor cell lines were grown in complete EMEM media. The cells were plated at 15,000 cells in 100 μL total volume per well in a 96 well tissue culture plate for adherence overnight. The viability of the cells prior to plating was checked via trypan blue exclusion method and >95% cells were viable.
The next day the cells were treated with cetuximab-IR700 at 500 ng/mL for 1 hr at 37° C. in the CO2 incubator and then were treated with light by subjecting the cells to 690 nm laser light fluence of 12 J/cm^2. The controls represented wells corresponding to the groups not treated with light (non-PIT treated tumor cells).
THP1 cells (ATCC® TIB202™) were grown in complete RPMI. For co-culture, 15,000 THP1 cells were directly added into the wells with PIT treated tumor cells and control non PIT treated tumor cell wells. The co-cultures were then incubated for 24 hours at 37° C. in the CO2 incubator. […]
Cells were resuspended in stain buffer and human Fc blocking reagent (BD Biosciences) was then added and cells were incubated for 20 min at room temperature. […] Appropriate gating was done while analyzing the data to exclude cell debris and the data was analyzed with gating performed on live events. […] The results were based on mean fluorescence intensity (MFI) data from each group which was plotted as fold increase over the no light controls. […]

[3] = single dosage administration, sample patient population
[4] = 2nd incubation 2 μg/mL Don × Hu IRDye 700DX

Substance: cetuximab-IRDye 700DX: conjugate containing IRDye 700DX (IR700) linked to cetuximab
- Cetuximab-IR700 Mean AUC0-24 (4.0 mg/kg, 160 mg/m^2, single IV infusion): 770 ± 47.5 µg·h/mL
- Cetuximab-IR700 Mean AUC0-24 (8.0 mg/kg, 320 mg/m^2, single IV infusion): 1700 ± 166 µg·h/mL
- Cetuximab-IR700 Mean AUC0-24 (16.0 mg/kg, 640 mg/m^2, single IV infusion): 3,690 +/− 1,060 hr*μg/mL
- mean AUC0-24 (640 mg/m^2): 3,690 μg/mL*h
- mean AUC0-24 as percent of the extrapolated AUC of 1-month Erbitux treatment (640 mg/m^2): approximately 6%
- mean systemic exposure (AUC0-24) [3]: ~770 ± 47.5 µg·h/mL
- mean systemic exposure (AUC0-inf) [3]: about 1810 μg/mL*h
- % Dead cells 690 nm Light (16 J/cm^2) [1, 4]: 96.66% +/− 4.24%
- % Dead cells No Light [1, 4]: 7.89% +/− 0.24%
- % Dead cells 690 nm Light (16 J/cm^2) ([1]; no 2nd incubation): 65.76% +/− 5.14%
- % Dead cells No Light ([1]; no 2nd incubation): 7.44% +/−1.10%
- CD86 surface expression ([2]; co-culture with PIT-treated A431 cells): increased surface CD86 expression
- CD86 surface expression ([2]; co-culture with PIT-treated FaDu cells): increased surface CD86 expression
